The list is not random: actives were taken first. Their share in the collection is about 1.6%.
Vif inh: HIV Vif inhibition; HEK293T cells, Vif self-association by quenched fluorescence, imaging, 24 h; inhibition, % at 7.49 µM; actives 0.35% (n = 340,000); AID 602346; in the data active = inhibition above about 50%, passing the limit was not always enough; inconclusive = no clear call, values can overlap the other calls; inactive = below about 31%
Yeast UUG start: modulators of start codon recognition fidelity in yeast | S. cerevisiae UUG-firefly luciferase reporter, luminescence/redox ratio | activity score, % at 18.7 µM | 350,000 tested, 0.13% active;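 active = replicate mean at a twofold rise or more, about +100% in these data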;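 also: firefly luciferase made from a UUG start codon reports start codon fidelity; reporter light over untreated wells divided by growth signal over untreated wells; some hits fall short of that in this replicate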
CAL PDZ FP-1: inhibitors of human CAL PDZ peptide binding; purified CAL PDZ, TMR-peptide fluorescence polarization, 1 h; AID 602252; actives 0.92% (n = 300,000); Q9HD26; inhibition, % at 24.9 µM;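 active = mean inhibition of at least 30% with at least half of replicates also reaching 30%; inconclusive = no clear call, values can overlap the other calls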
CAL PDZ FP-2: inhibitors of human CAL PDZ peptide binding. Q9HD26. purified CAL PDZ, TMR-peptide fluorescence polarization, 1 h. inhibition, % at 20 µM. actives 0.02% (n = 330,000). AID 504414;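 active = highest replicate inhibition of at least 40%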
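Control set: unlabelled peptide and DMSO controls / Material: purified CerCALP PDZ construct / Timing: 1 h incubation at room temperature before polarization reading / Doses: 20 µM, one dose / Detection: fluorescence polarization (mP)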
PglD DTNB: blocks C. jejuni PglD acetyltransferase activity; purified PglD enzyme, DTNB colorimetric CoA detection; inhibition, % at 12.5 µM; actives 0.098% (n = 360,000); AID 602405; in the data active = inhibition above about 16%, passing the limit was not always enough; inconclusive = no clear call, values can overlap the other calls
ARNT TACC3 PPI: ARNT/TACC3 interaction disruption | Q9Y6A5 | AlphaScreen His-ARNT PAS-B/GST-TACC3 binding, luminescence; TACC3 fragment carries E629A point mutation | inhibition, % at 9.99 µM | actives 0.66% (n = 390,000);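 active = mean inhibition of replicates at least 50% and at least half of replicates each reaching 50%; inconclusive = half or more replicates reach 50% but mean below 50%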
Hits are given with their value; - = inactive; ? = inconclusive; . = not tested or not shown.

SMILES | Vif inh | Yeast UUG start | CAL PDZ FP-1 | CAL PDZ FP-2 | PglD DTNB | ARNT TACC3 PPI
O=C(NCCN1CCOCC1)C(=O)NCC1OCCN1S(=O)(=O)c1ccc(F)cc1 (stereo not drawn) | - | - | 83 | - | - | -
COCCNC(=O)C(=O)NCC1OCCN1S(=O)(=O)c1ccc(F)cc1 (stereo not drawn) | - | - | 34 | - | - | -
CO[C@H]1CN(C)C(=O)c2cc(NC(=O)CC(F)(F)F)ccc2OC[C@H](C)N(S(=O)(=O)c2cn(C)cn2)C[C@H]1C | . | - | . | . | - | -
C[C@@H]1CN([C@@H](C)CO)C(=O)Cc2cc(NC(=O)Cc3ccccc3)ccc2O[C@H]1CN(C)S(=O)(=O)c1ccc(Cl)cc1 | . | - | . | . | - | -
Cc1ccc(C)c(NC(=S)N(CCN(C)C)C(C)c2ccccn2)c1 (stereo not drawn) | - | - | - | - | - | -
Cc1cccc(C)c1NC(=S)N(CCN(C)C)C(C)c1ccccn1 (stereo not drawn) | - | . | - | - | . | 45
COCCn1c(-c2ccc(OC)cc2)cnc1SCC(=O)Nc1cc(C)on1 | - | - | - | - | - | -
COCCn1c(-c2ccc(OC)cc2)cnc1N | ? | - | - | - | - | 45
C[C@@H]1CN([C@H](C)CO)C(=O)c2cccc(NC(=O)Nc3ccccc3)c2O[C@@H]1CN(C)Cc1ccc(-c2ccccc2)cc1 | . | - | . | . | - | -
CC(=O)NC(c1cccc([N+](=O)[O-])c1)c1ccc2cccnc2c1O (stereo not drawn) | - | - | - | - | - | -
O=[N+]([O-])c1ccc(NC(c2ccccc2)c2ccc3cccnc3c2O)cc1 (stereo not drawn) | - | - | 91 | - | - | -
COc1cccc(C(NC(C)=O)c2ccc3cccnc3c2O)c1 (stereo not drawn) | - | - | - | - | - | 100
O=C(CSc1nc2ccccc2[nH]1)NCC1CCCO1 (stereo not drawn) | - | . | 40 | - | . | -
Cc1ccc(C(=O)Nc2c(N)nc(SCC(=O)NCC3CCCO3)[nH]c2=O)cc1 (stereo not drawn) | ? | - | - | - | - | -
COc1ccc(C(=O)Nc2c(N)nc(SCC(=O)NCC3CCCO3)[nH]c2=O)cc1OC (stereo not drawn) | . | - | 92 | - | - | -
CC(=O)Nc1ccc(S(=O)(=O)Nc2nc3ccccc3nc2Nc2ccc(C(=O)O)c(O)c2)cc1 | - | - | - | - | - | 40
COc1cccc(C(=O)Nc2ccc3c(c2)OC[C@@H](C)N(C(C)=O)C[C@@H](C)[C@H](OC)CN(C)C3=O)c1 | . | - | . | . | - | -
CN(C)S(=O)(=O)c1cccc(NC(=O)COC(=O)c2ccc([N+](=O)[O-])o2)c1 | . | . | - | - | . | 64
C[C@@H]1CN([C@H](C)CO)C(=O)Cc2cc(NC(=O)c3ccncc3)ccc2O[C@H]1CN(C)Cc1ccc2c(c1)OCO2 | . | - | . | . | - | -
COc1ccc(OC)c(N2C(=O)c3cccnc3C2=O)c1 | - | - | - | - | - | 47
COc1ccc(Cl)cc1N1C(=O)c2cccnc2C1=O | - | - | - | - | - | -
O=C(c1ccccn1)N1C[C@@H]2[C@H](c3ccccc31)[C@@H](CO)N2C(=O)CC1CC1 | . | - | . | . | - | -
CCc1cccc2cc3c(N)c(C(=O)Nc4ccc(S(=O)(=O)N5CCCC5)cc4)sc3nc12 | 68 | - | - | - | - | -
CC(C)CN1C(=O)C(=O)N(CC(=O)c2ccc3c(c2)OCO3)C1=O | 147 | - | - | - | - | -
Brc1cccc(CNCC2CCCO2)c1 (stereo not drawn) | - | - | - | 54 | - | -
CC(=O)N(C)C[C@H]1Oc2cc(-c3cccnc3)ccc2S(=O)(=O)N([C@@H](C)CO)C[C@H]1C | . | - | . | . | - | -
CC(C)C#Cc1ccc2c(c1)O[C@H](CN(C)S(C)(=O)=O)[C@@H](C)CN([C@H](C)CO)S2(=O)=O | . | - | . | . | - | -
Cc1cc(-c2cccs2)c(C#N)c(=S)[nH]1 | - | - | . | - | - | -
N#Cc1c(-c2cccs2)cc(-c2cccs2)[nH]c1=O | 51 | - | . | - | - | -
O=C(COc1ccc(F)cc1Br)NCC1(N2CCCCC2)CCCCC1 | - | - | - | - | - | -
